This passage reports Ki and IC50 results from ChEMBL document CHEMBL3421623 (J Med Chem, 2015).

Sequences of proteins named here, by UniProt entry; tags and fusion partners are left off. A change or cut given only in a name is not applied to a line headed by its entry.
UniProt P05177, whole entry: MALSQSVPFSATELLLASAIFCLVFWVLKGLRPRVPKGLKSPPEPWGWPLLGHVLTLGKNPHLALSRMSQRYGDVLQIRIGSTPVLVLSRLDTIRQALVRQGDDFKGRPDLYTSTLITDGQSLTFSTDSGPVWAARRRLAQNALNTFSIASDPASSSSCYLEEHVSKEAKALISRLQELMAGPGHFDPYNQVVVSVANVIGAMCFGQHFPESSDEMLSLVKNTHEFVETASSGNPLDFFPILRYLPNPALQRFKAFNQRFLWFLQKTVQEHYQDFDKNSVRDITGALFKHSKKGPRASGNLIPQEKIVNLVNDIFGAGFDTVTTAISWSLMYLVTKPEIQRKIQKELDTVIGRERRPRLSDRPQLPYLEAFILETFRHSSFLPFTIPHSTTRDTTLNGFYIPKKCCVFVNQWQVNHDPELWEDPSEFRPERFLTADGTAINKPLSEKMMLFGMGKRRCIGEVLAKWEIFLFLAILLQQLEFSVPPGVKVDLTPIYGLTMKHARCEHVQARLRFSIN
UniProt P11511: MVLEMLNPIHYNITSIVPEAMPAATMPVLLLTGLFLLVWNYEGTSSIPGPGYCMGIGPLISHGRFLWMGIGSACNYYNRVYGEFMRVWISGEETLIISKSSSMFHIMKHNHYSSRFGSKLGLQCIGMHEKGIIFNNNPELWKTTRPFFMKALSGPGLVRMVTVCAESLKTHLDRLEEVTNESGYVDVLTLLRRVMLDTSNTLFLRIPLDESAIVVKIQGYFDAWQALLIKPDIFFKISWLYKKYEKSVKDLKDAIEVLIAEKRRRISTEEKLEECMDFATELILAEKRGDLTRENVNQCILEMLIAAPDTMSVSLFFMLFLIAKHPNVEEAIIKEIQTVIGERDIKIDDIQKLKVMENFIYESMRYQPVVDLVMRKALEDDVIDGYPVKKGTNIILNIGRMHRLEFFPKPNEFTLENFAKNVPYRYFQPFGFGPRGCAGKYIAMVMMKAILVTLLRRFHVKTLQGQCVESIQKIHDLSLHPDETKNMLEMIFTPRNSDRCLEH

Experiment [1] has as its target Cytochrome P450 1A2 (Homo sapiens, UniProt P05177). Nature of the experiment: Inhibition of human recombinant CYP1A2 assessed as metabolism of 3-cyano-7-ethoxycoumarin after 30 mins by fluorescence assay. In kind it is ADME.
Experiment [2] deals with Aromatase (Homo sapiens, UniProt P11511). Description: Inhibition of human recombinant aromatase using 7-methoxy-trifluoromethylcoumarin as substrate assessed as formation of fluorescent metabolite after 30 mins by fluorescence assay. The method in brief: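 Recombinant human CYP19 with MFC substrate, converted to fluorescent HFC, in 0.1 M potassium phosphate pH 7.4. NADPH-regenerating mix (NADP⁺, MgCl₂, glucose-6-phosphate, G6PDH); compound prewarmed 10 min at 37 °C, then 30 min reaction stopped with Tris base in acetonitrile. Activity as % of vehicle control; IC50 from one-site competition fit; Ki from Lineweaver–Burk data by nonlinear regression.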

As to `CC/C(=C(/c1ccc(O)cc1)c1ccc(OCCN)cc1)c1ccccc1` (mixture of isomers), the Ki in experiment [1] was determined as 76 nM. Further, the half-maximal inhibitory concentration (IC50) in experiment [2] stood at 102 nM.
